## AlphaSeq binding of Ab-95 light chain variants to a spike HR2 peptide

Antigen: PDVDLGDISGINAS, a 14-residue peptide of the SARS-CoV-2 spike HR2 region.

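Variants in AAYL52 differ from the parent at up to three CDR positions; double and triple changes were sampled at random. The assay is AlphaSeq: two haploid yeast populations carry antibody and antigen on their surface. Binding brings cells together so that they mate, and sequencing counts the barcode pairs among the diploids. Read counts were normalised to the haploid input and turned into Kd by a linear fit to BCL2-family pairs of known affinity, for each replicate. Each pool was mated in three replicate cultures.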

Parent: Ab-95, a human scFv built as VH, a 15-residue (Gly4Ser)3 linker, VL. Only the CDRs of the light chain vary.
VH: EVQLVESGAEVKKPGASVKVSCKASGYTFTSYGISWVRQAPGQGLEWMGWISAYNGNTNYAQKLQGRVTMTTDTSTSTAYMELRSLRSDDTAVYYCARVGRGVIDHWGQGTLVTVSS
VL: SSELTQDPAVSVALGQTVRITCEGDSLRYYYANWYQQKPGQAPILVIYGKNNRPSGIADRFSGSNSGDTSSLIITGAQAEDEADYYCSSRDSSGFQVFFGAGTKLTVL

Each variant is given by its three light chain CDRs, as the data file delimits them; those of the parent are EGDSLRYYYAN, GKNNRPS, SSRDSSGFQVF.
Every variant below is changed at V97 of the VL (sequential numbering).
Values are apparent Kd, the geometric mean of the replicates that gave a signal; lower means stronger binding.
"no signal" marks a missing value. The strain was present, yet no cells mated with the target were sequenced in any replicate, which points to weak or no binding.
Entries are sorted by rising average, undetected variants last.
Parent in this assay: reference entry 200 nM, copy in this library 180 nM.
Three control strains display no target. For library AAYL52, 28% of the pairings with them gave a signal, with a median of 8.2 µM and one signal in twenty below 800 nM, so weak values seen in few replicates may be background. Also given: how often the same scFv was detected with the empty control strains.

Variant EGDSLRYYPAN | GKNNRPS | SSRDSSGFQLF gave 21 nM (3 of 3 replicates; controls 2 of 9). Variant EGASLRYEYAN | GKNNRPS | SSRDSSGFQKF showed 28 nM (3 of 3 replicates; controls 4 of 9). Variant EGDSLRYYEAN | GKNNRPS | SSRPSSGFQHF showed 44 nM (3 of 3 replicates; controls 3 of 9). For EGASLRYYYAN | GKNNKPS | SSRDSSGFQWF, the assay gave 300 nM (3 of 3 replicates; controls 2 of 9). For EGGSLRYYYAN | GKNNRPS | SFRDSSGFQYF, the assay gave 300 nM (3 of 3 replicates; controls 7 of 9). For EGDSLEYYYAN | GKNNRPS | SSRDSSGDQWF, the assay gave 360 nM (3 of 3 replicates; controls 1 of 9). For EGDSLRYYYAN | GKNNRPS | SSRSLSGFQWF, the assay gave 590 nM (3 of 3 replicates; controls 2 of 9). For EGDSLRYQYAN | GKNNRPS | SPRDSSGFQNF, the assay gave 600 nM (1 of 3 replicates; controls 6 of 9). Variant EGDSLRYRYLN | GKNNRPS | SSRDSSGFQQF gave 790 nM (3 of 3 replicates; controls 0 of 9).

Variant EGYSLRYYYAN | GKNNRPS | SSRDLSGFQGF gave 850 nM (2 of 3 replicates; controls 4 of 9). With EGDSLRYYYAN | GKNARPS | SSRDSSGFQND the result was 990 nM (3 of 3 replicates; controls 2 of 9). Variant EGDSLRYYYAN | GKNNRFS | SSRDISGFQNF gave 1.5 µM (2 of 3 replicates; controls 0 of 9). Variant EGDSLRYYYGN | GKNNRPS | SSRDSSGFQDT showed 1.7 µM (3 of 3 replicates; controls 6 of 9). For EGDSLRYYYAN | GKNNRPS | SSRDSSYVQIF, the assay gave 2.5 µM (3 of 3 replicates; controls 2 of 9). With EGDSLRYYYAN | GLNNRPS | SMRDSSGFQCF the result was 2.7 µM (1 of 3 replicates; controls 2 of 9). For EGDSLRYYYAN | GKNNRPS | SERDSSGFQNF, the assay gave 3.0 µM (3 of 3 replicates; controls 2 of 9). Variant EGDSLRYLYAN | NKNNRPS | SSRDSSGFQWF gave 4.6 µM (3 of 3 replicates; controls 5 of 9). With EGDSLRYYYAN | GENNRPS | SSDDSSGFQWF the result was 4.8 µM (2 of 3 replicates; controls 0 of 9).

For EGDSLRYYYAN | GKNNRPS | SSCDSSGFQQF, the assay gave 6.0 µM (3 of 3 replicates; controls 3 of 9). With EGDSLRYYYAN | RKTNRPS | SSRDSSGFQAF the result was 6.4 µM (1 of 3 replicates; controls 3 of 9). With EGDSLRYYYWQ | GKNNRPS | SSRDSSGFQKF the result was 11 µM (1 of 3 replicates; controls 1 of 9). Variant EGDSLRYYYAN | GKANRPS | VSRDSSGFQEF gave 11 µM (2 of 3 replicates; controls 2 of 9). Variant EGDSLRYYYAN | GKNNRPS | SSRDSGGFIDF showed 11 µM (3 of 3 replicates; controls 0 of 9). Variant EGDSLRYYYAK | GKNNDPS | SSRDSSGFQFF showed 16 µM (1 of 3 replicates; controls 2 of 9). Variant EGDSLRYYYAN | MKNNRNS | SSRDSSGFQDF gave 16 µM (2 of 3 replicates; controls 2 of 9). With ELDSLRYYYAN | GKNNRPS | SSRDSYGFQSF the result was 16 µM (2 of 3 replicates; controls 2 of 9). For EGKSLRYYYAN | GKNNRPS | SSRDSSGAQFF, the assay gave 22 µM (2 of 3 replicates; controls 4 of 9).

Variant EGDSLRYYYAN | IKNNRLS | SSRDSSGFQFF showed 23 µM (2 of 3 replicates; controls 3 of 9). Variant EGDSLRYYDAN | GKNNRPS | YSRDSSGFQMF gave 99 µM (1 of 3 replicates; controls 2 of 9). With EGDSLRYYYAN | GKNNRPS | SSRDTSGFQNF the result was 270 µM (1 of 3 replicates; controls 2 of 9). With EGDSLRYYYAN | GKNNRPS | YMRDSSGFQCF the result was no signal (0 of 3 replicates; controls 0 of 9). With ETDSLRYYYAN | GKNNRPS | SSRFSSGFQFF the result was no signal (0 of 3 replicates; controls 2 of 9). Variant EGDSLRYYYAN | GKNNRPS | SSRDSSGFQKF showed no signal (0 of 3 replicates; controls 2 of 9). Variant EGDSLRYYYAN | GKNNRPS | SSRRSSGFQNF showed no signal (0 of 3 replicates; controls 0 of 9). Variant EGDSLRYYYCN | GKGNRPS | SSRDSSGFQMF showed no signal (0 of 3 replicates; controls 2 of 9).

Source: Engelhart et al. 2022 (doi:10.1038/s41597-022-01779-4), MIT Lincoln Laboratory and A-Alpha Bio; data file from the FLAb repository.